One experiment concerns influenza virus. The format is cell-based.
Experiment [1] concerns influenza virus strain H1N1.
The test system of experiment [2] is influenza virus strain H3N2.

Counter-ions that a name gives are not always drawn.

On to `N=C(N)c1ccc2cc(OC(=O)c3ccc(N=C(N)N)cc3)ccc2c1` [nafamostat mesylate], for which the therapeutic window with influenza virus amounted to 48 h. For the same compound, the “activity against H1N1 virus” value in experiment [1] was “inhibitory activity”. In experiment [2], the “activity against H3N2 virus” value is “inhibitory activity”.
